Patent US7375074B2, “Body weight gain inhibitor” (priority 2001, dated 2008)

Columns and labels:
GPR7 = biological target: T1, GPR7 (Homo sapiens, UniProt P48145); experiment: Inhibiting activity of intracellular cAMP production, human GPR7 expressing CHO cells; type: cell-based; parameters: expressed in transfected cells; host or cells: CHO dhfr- cells, plasmid pAKKO-Human GPR7; membrane fraction; conditions: forskolin
T1 sequence (P48145 1-328): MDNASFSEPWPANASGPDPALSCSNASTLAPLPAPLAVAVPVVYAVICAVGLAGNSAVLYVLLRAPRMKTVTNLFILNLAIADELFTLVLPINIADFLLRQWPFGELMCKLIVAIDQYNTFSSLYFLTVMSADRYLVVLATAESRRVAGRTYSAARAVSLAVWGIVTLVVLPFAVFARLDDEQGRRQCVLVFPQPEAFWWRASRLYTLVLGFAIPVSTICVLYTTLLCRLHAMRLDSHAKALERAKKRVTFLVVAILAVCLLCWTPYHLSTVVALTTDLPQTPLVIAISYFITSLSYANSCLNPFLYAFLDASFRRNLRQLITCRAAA
Protocol: The human GPR7 expressing CHO cells, which are prepared in Reference Example 78 and selected as described in Reference Example 79, were seeded on 24-well plate at 5×10^4 cells/well and cultivated for 48 hours. The cells were washed with MEMα buffer (pH7.4) containing 0.2 mM 3-isobutyl-methylxanthine, 0.05% BSA (bovine serum albumine) and 20 mM HEPES [hereafter, MEMα buffer (pH7.4) containing 0.2 mM 3-isobutyl-methylxanthine, 0.05% BSA (bovine serum albumine) and 20 mM HEPES may be referred to as reaction buffer]. Then, 0.5 ml of the reaction buffer was added to the cells and the suspension was incubated for 30 minutes in the incubator. After removal of the reaction buffer and newly adding 0.25 ml of the reaction buffer to the cells, an appropriate concentration of sample in DMSO solution and 0.25 ml of the reaction buffer containing 2 μM forskolin were added to the cells and the mixture was reacted at 37° C. for 30 minutes. For termination of the reaction, 100 μl of 20% perchloric acid was added. […] The cAMP level in the extract was measured using the cAMP EIA Kit (Amersham Pharmacia Biotech).
The hGPR8L(1-23) or the hGPR8L(1-30) was administered at various concentrations to the human GPR7 expressing CHO cells by the method described in Reference Example 80, and an inhibiting activity of intracellular cAMP production was measured. […]

TGR26 = biological target: T2, TGR26 (Rattus norvegicus, UniProt Q56UD9); experiment: Promoting activity for GTPγS binding, membrane fraction of TGR26 expressing CHO cells; type: biochemical
T2 construct: treated with restriction enzymes ClaI and SpeI, and the insert encoding TGR26 was excised; expressed in transfected cells; host or cells: CHO dhfr- cells, plasmid pAK-rGPR7; membrane fraction
T2 sequence (Q56UD9 1-329): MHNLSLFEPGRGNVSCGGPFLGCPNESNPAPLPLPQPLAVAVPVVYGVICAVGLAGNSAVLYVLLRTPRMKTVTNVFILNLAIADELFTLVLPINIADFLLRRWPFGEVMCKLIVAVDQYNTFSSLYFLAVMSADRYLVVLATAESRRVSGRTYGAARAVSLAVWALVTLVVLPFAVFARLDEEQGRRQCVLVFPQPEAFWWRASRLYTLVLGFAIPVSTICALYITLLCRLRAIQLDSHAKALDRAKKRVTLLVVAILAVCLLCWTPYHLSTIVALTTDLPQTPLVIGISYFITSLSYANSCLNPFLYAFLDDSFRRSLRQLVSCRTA
Protocol: Promoting activity for [^35S]-guanosine 5′-(γ-thio) triphosphate (GTPγS) binding to a membrane fraction of TGR26 expressing cells was assayed in accordance with the following method.
To 1×10^8 of TGR26 expressing CHO cells, 10 ml of homogenating buffer (10 mM NaHCO3, 5 mM EDTA, 0.5 mM PMSF (phenylmethylsulfonyl fluoride), 1 μg/ml Pepstatin, 4 μg/ml E-64, 20 μg/ml Leupeptin) was added, and the cells were disrupted using Polytron (12,000 rpm, 1 minute). Supernatant was obtained from the disrupted cell suspension by centrifugation (1,000 g, 15 minutes). Further, the supernatant was ultracentrifuged (Beckman Type 30 rotor, 30,000 rpm, 1 hour), and precipitate obtained was kept as a membrane fraction of TGR26 expressing CHO cells.
The membrane fraction of TGR26 expressing CHO cells was diluted with membrane dilution buffer (50 mM Tris HCl buffer (pH7.4), 5 mM MgCl2, 150 mM NaCl, 1 μM GDP, 0.1% BSA) to prepare a cell membrane fraction solution for assay at 30 μg/ml of protein concentration. To 200 μl of membrane fraction solution for assay, 2 μl of 50 nM [^35S]-guanosine 5′-(γ-thio) triphosphate (NEN) and 2 μl of sample/DMSO solution having an appropriate concentration were added. Then the mixture was incubated at 25° C. for one hour. […] Finally, a radioactivity on the filter was determined by liquid scintillation counter. […]

| Structure (SMILES) | inhibiting activity of intracellular cAMP production (in words) (GPR7) | promoting activity of GTPγS binding (in words) (TGR26) |
| --- | --- | --- |
| CSCC[C@H](NC(=O)[C@H](CC(C)C)NC(=O)[C@H](CC(C)C)NC(=O)CNC(=O)[C@H](C)NC(=O)[C@H](C)NC(=O)[C@H](CCCNC(=N)N)NC(=O)CNC(=O)[C@@H](NC(=O)[C@@H](NC(=O)[C@H](Cc1c[nH]cn1)NC(=O)[C@H](Cc1ccc(O)cc1)NC(=O)[C@H](CCCNC(=N)N)NC(=O)[C@@H]1CCCN1C(=O)[C@H](CO)NC(=O)[C@H](C)NC(=O)[C@@H](NC(=O)[C@H](Cc1c[nH]cn1)NC(=O)[C@H](CCCCN)NC(=O)[C@H](Cc1ccc(O)cc1)NC(=O)[C@@H](N)Cc1c[nH]c2ccccc12)C(C)C)[C@@H](C)O)C(C)C)C(=O)NCC(=O)N[C@@H](CC(C)C)C(=O)O [hGPR8L(1-23)] | apparently inhibited intracellular cAMP production | apparently promoted GTPγS binding |
| CSCC[C@H](NC(=O)[C@H](CC(C)C)NC(=O)[C@H](CC(C)C)NC(=O)CNC(=O)[C@H](C)NC(=O)[C@H](C)NC(=O)[C@H](CCCNC(=N)N)NC(=O)CNC(=O)[C@@H](NC(=O)[C@@H](NC(=O)[C@H](Cc1c[nH]cn1)NC(=O)[C@H](Cc1ccc(O)cc1)NC(=O)[C@H](CCCNC(=N)N)NC(=O)[C@@H]1CCCN1C(=O)[C@H](CO)NC(=O)[C@H](C)NC(=O)[C@@H](NC(=O)[C@H](Cc1c[nH]cn1)NC(=O)[C@H](CCCCN)NC(=O)[C@H](Cc1ccc(O)cc1)NC(=O)[C@@H](N)Cc1c[nH]c2ccccc12)C(C)C)[C@@H](C)O)C(C)C)C(=O)NCC(=O)N[C@@H](CC(C)C)C(=O)N[C@@H](CCCNC(=N)N)C(=O)N[C@@H](CCCNC(=N)N)C(=O)N[C@@H](CO)C(=O)N1CCC[C@H]1C(=O)N[C@@H](Cc1ccc(O)cc1)C(=O)N[C@@H](CC(C)C)C(=O)N[C@@H](Cc1c[nH]c2ccccc12)C(=O)O [hGPR8L(1-30)] | apparently inhibited intracellular cAMP production | apparently promoted GTPγS binding |
